The list shows a part of the results, in another mix than the full data. Active and inactive are the calls of the source.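 Rule for the calls: active = signal ratio slope over the read window, or its plate-corrected B-score, at least 3 SD from the plate mean, either direction; inactive = the rest.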
Target: ATP-sensitive inward rectifier potassium channel 1 (Homo sapiens) (UniProt P48048)
Experiment: ROMK potassium channel modulators, primary screen, cell-based, thallium flux, MLSMR library (AID 1918);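 note: B-score of the F/F0 ratio slope over 7 to 12 s after thallium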
Settings: Tet-inducible ROMK, thallium flux fluorescence; at 10 µM; actives lie on both sides

Protein sequences, listed by entry. Tags and fused reporters are not part of them.
UniProt P48048, whole entry: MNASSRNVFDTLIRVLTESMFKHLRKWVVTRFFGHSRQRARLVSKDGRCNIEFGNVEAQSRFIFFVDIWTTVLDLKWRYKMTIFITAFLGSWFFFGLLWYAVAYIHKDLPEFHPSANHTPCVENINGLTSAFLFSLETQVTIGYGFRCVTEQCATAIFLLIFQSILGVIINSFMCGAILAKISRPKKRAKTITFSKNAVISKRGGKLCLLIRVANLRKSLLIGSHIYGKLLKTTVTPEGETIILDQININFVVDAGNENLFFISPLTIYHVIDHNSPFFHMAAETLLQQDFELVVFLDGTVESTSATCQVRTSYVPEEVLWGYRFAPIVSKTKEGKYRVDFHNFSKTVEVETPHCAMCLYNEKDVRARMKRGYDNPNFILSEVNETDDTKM

SMILES | B-score
CCOC(=O)c1ccc(NP(C)(=O)Oc2cc(C)cc(C)c2)cc1 (configuration not stated) | inactive: -0.323
Cc1cc(C)cc(OP(C)(=O)Nc2ccc(C)cc2C)c1 (configuration not stated) | inactive: 0.97
CP(=O)(Nc1cccc(Br)c1)Oc1ccccc1 (configuration not stated) | inactive: 0.0102
CCCOc1ccc(NP(C)(=O)Oc2ccc(Cl)cc2)cc1 (configuration not stated) | inactive: -0.379
CP(=O)(Nc1ccc(SC(F)(F)F)cc1)Oc1ccccc1 (configuration not stated) | inactive: -1.03
O=[N+]([O-])c1cc([N+](=O)[O-])c(-n2nnc3ccccc32)c([N+](=O)[O-])c1 | inactive: 0.129
Cc1nc2ccc3ccccc3c2s1.O=[N+]([O-])c1cc([N+](=O)[O-])c(O)c([N+](=O)[O-])c1 | inactive: -1.09
CCc1ccc(OP(C)(=O)N2CCN(c3ccc([N+](=O)[O-])cc3)CC2)cc1 (configuration not stated) | inactive: -2.04
CP(=O)(Oc1ccccc1)OC(c1ccccc1)C(F)(F)F (configuration not stated) | inactive: -0.247
CP(=O)(Nc1ccc(SC(F)(F)F)cc1)Oc1ccc(Cl)cc1 (configuration not stated) | inactive: -2.08
Cc1cccc(C)c1OP(C)(=O)Nc1ccc(SC(F)(F)F)cc1 (configuration not stated) | inactive: -2.03
CP(=O)(Nc1ccccn1)Oc1ccc(Cl)cc1 (configuration not stated) | inactive: -0.191
CP(=O)(Nc1ccccc1Br)Oc1ccccc1 (configuration not stated) | inactive: -0.164
COc1ccccc1OP(C)(=O)Nc1ccccc1 (configuration not stated) | inactive: 0.534
O=[N+]([O-])c1ccc2c(c1)C=Nc1ccccc1O2 | active: -4.19
Cc1cccc(C)c1OP(C)(N)=O (configuration not stated) | inactive: -1.24
CC(C)(C)c1ccc(OP(C)(=O)Nc2ccc(SC(F)(F)F)cc2)cc1 (configuration not stated) | inactive: 0.096
Cc1cc(C)cc(OP(C)(N)=O)c1 (configuration not stated) | inactive: 0.665
COc1ccc(OP(C)(=O)Nc2cccc(F)c2)cc1 (configuration not stated) | inactive: -0.778
COc1ccccc1OP(C)(=O)Nc1cc(Cl)ccc1C (configuration not stated) | inactive: -0.457
Cc1ccc(NP(C)(=O)Oc2ccccc2)c(C)c1 (configuration not stated) | inactive: 0.031
CCOC(=O)c1ccc(NP(C)(=O)Oc2ccccc2)cc1 (configuration not stated) | inactive: -0.571
CCN(CC)CCCOC(=O)C(O)(c1ccccc1)c1ccccc1 | inactive: -0.0876
COc1ccc(OP(C)(=O)Nc2ccccn2)cc1 (configuration not stated) | inactive: 1.66
COc1ccccc1OP(C)(=O)Nc1ccc(Br)cc1 (configuration not stated) | inactive: 1.3
CP(=O)(Nc1ccccn1)Oc1ccccc1 (configuration not stated) | inactive: -0.493

SMILES | B-score
O=[N+]([O-])c1cc([N+](=O)[O-])c(Nc2ccccn2)c([N+](=O)[O-])c1 | inactive: 0.0377
COc1ccc(OP(C)(=O)Nc2ccccc2Br)cc1 (configuration not stated) | inactive: 0.0528
Cc1cc(C)cc(OP(C)(=O)Nc2cccc(C(F)(F)F)c2)c1 (configuration not stated) | inactive: -0.444
CP(=O)(Nc1ccc(Cl)cc1Cl)Oc1ccccc1 (configuration not stated) | inactive: 0.197
CP(=O)(OCCOc1ccccc1)OCCOc1ccccc1 | inactive: 0.604
CCOC(=O)c1ccc(NP(C)(=O)Oc2ccc(Cl)cc2)cc1 (configuration not stated) | inactive: 0.142
CP(=O)(OC12CC3CC(CC(C3)C1)C2)OC12CC3CC(CC(C3)C1)C2 | inactive: -1.81
O=C(OCCCN1CCCC1)C(O)(c1ccccc1)C1CCCCC1 (configuration not stated) | inactive: 0.152
COc1ccccc1OP(C)(=O)Nc1c(C)n(C)n(-c2ccccc2)c1=O (configuration not stated) | inactive: 0.234
CCc1ccc(OP(C)(=O)Nc2cccnc2)cc1 (configuration not stated) | inactive: 0.815
CCN(CC)CC(O)COC(=O)C(O)(c1ccccc1)C1CCCCC1 (configuration not stated) | inactive: -0.502
CN(C)C(=O)c1c([N+](=O)[O-])cc([N+](=O)[O-])cc1[N+](=O)[O-] | inactive: 0.279
COc1ccccc1OP(C)(=O)Nc1ccccc1Br (configuration not stated) | inactive: -0.128
CC(C)(C)c1ccc(OP(C)(=O)O)cc1 | inactive: 0.43
CP(=O)(Nc1ccc(SC(F)(F)F)cc1)Oc1ccc(F)cc1 (configuration not stated) | inactive: -0.875
Cc1ccccc1NP(C)(=O)Nc1ccccc1C | inactive: 1.76
COc1ccc(NP(C)(=O)Oc2ccccc2OC)cc1 (configuration not stated) | inactive: -1.1
COc1ccc(OP(C)(=O)Nc2cccc(Br)c2)cc1 (configuration not stated) | inactive: -0.0098
O=[N+]([O-])c1ccc(OP2(=O)COCCO2)cc1 (configuration not stated) | inactive: -0.204
O=[N+]([O-])c1cc([N+](=O)[O-])c(NCC2CCS(=O)(=O)C2)c([N+](=O)[O-])c1 (configuration not stated) | inactive: -0.339
CCOC(=O)c1ccc(NP(C)(=O)Oc2ccc(F)cc2)cc1 (configuration not stated) | inactive: -1.66
COc1ccc(OP(C)(=O)Nc2ccc(SC(F)(F)F)cc2)cc1 (configuration not stated) | inactive: 0.854
CCCCCOc1ccc(NP(C)(=O)Oc2ccc(Cl)cc2Cl)cc1 (configuration not stated) | inactive: 0.576
CCN(CC)CCCOC(=O)C(O)(c1ccccc1)C1CCCCC1 (configuration not stated) | inactive: -1.42
CC(C)c1ccc(OP(C)(=O)Nc2ccc(SC(F)(F)F)cc2)cc1 (configuration not stated) | inactive: 1.91
O=C(OCCN1CCN(CCOCc2ccccc2)CC1)C(O)(c1ccccc1)c1ccccc1 | inactive: -2.14

Reference: PubChem BioAssay AID1918 (Vanderbilt High Throughput Screening Facility, 2009)
